Test: Dissociation constant, pKa of the compound
Format: physicochemical

pKa: 3.58
SMILES: Nc1cccc(F)c1

Source: ChEMBL document CHEMBL1155778, “The many roles for fluorine in medicinal chemistry” (J Med Chem, 2008)
